From US6900041B2 (dated 2005)

Assays:
[1] = system: IL-6 production by endothelial cells; assay: IL-6 ELISA of endothelial cell media; format: cell-based, human; conditions: endothelial cells transduced with control vector
GSK-3β expression = assay: RT-PCR of GSK-3β in endothelial cells; format: cell-based, human; conditions: endothelial cells (HMVEC); TNFα 10 ng/ml or AGE 100 μg/ml; 8 hours; vs control

AGE: Glycated HSA (AGE) from US Biologicals; advanced glycation end product
induction of IL-6 expression [1]: 7 fold
intensity of the 406 bp GSK-3β RT-PCR band (GSK-3β expression): decreased
